In EP1242012B1, “IMPROVED TRANSDERMAL CONTRACEPTIVE DELIVERY SYSTEM AND PROCESS” (priority 1999, dated 2001):
“And” between values parts separate entries of the source, which are not always exact repeats. Equal entries are not always repeated.

Test system: albino guinea pigs
Assay: Buehler sensitization test (induction and challenge)
[1] = individual guinea pig, 0.4 mL of 0.1 % DNCB in acetone, directly after removal, first figure of cell
[2] = individual guinea pig, 0.4 mL of 0.1 % DNCB in acetone, directly after removal, second figure of cell

## O=[N+]([O-])c1ccc(Cl)c([N+](=O)[O-])c1 [DNCB, dinitrochlorobenzene]
Guinea pigs, challenge day 28, 6 hours exposure
  signs of erythema or edema, challenge phase: exhibited signs of erythema and/or edema
[1]
  Erythema score, Induction Phase Week 1: 0/0
  Erythema score, Induction Phase Week 2: 0 and 0/0 and 1
[2]
  Edema score, Induction Phase Week 1: 0/0
  Edema score, Induction Phase Week 2: 2 and 0/0 and 1 and 0
  Edema score, Induction Phase Week 3: 2 and 1/1 and 1 and 3
Individual guinea pig, challenge 0.05% DNCB in acetone, 24 ± 2 hours after removal, first figure of cell
  Erythema score, Week 5 Challenge Phase 24 hr: 2 and 2/2 and 1
Individual guinea pig, challenge 0.05% DNCB in acetone, 24 ± 2 hours after removal, second figure of cell
  Edema score, Week 5 Challenge Phase 24 hr: 1 and 2/2 and 3 and 2
Individual guinea pig, challenge 0.05% DNCB in acetone, 48 ± 2 hours after removal, first figure of cell
  Erythema score, Week 5 Challenge Phase 48hr: 2 and 1/1 and 1
Individual guinea pig, challenge 0.05% DNCB in acetone, 48 ± 2 hours after removal, second figure of cell
  Edema score, Week 5 Challenge Phase 48hr: 0 and 1/1 and 2 and 1
Positive control group, 5 guinea pigs
  animals with signs of erythema and edema following the second induction application: Two animals in the positive control group exhibited signs of erythema and edema
